Drawing on patent US8192753B2, “pH-sensitive cationic lipids, and liposomes and nanocapsules containing the same” (Marina Biotech, Inc., priority 2002, dated 2012), this text covers pKa for two substances.

Where two headings read alike, the source gives them in different places.

For data set [1] the following is noted: pH 3.
Data set [2] in a line: Determination of pKa values by titration in 0.5% TRITON-X 100. The conditions noted are these: lipid in 0.5% TRITON-X 100 in water, titrated with 20 mM NaOH from pH 3.0.

Take “2-histamine-(1,2-dipalmitoyl-sn-glycero-3-hydroxyphosphoryloxy)ethyl [#30]”: the pKa in data set [1] is recorded as 6.7.
For “histamine-dipalmitoylglycerol succinate [#59]”, in data set [2], the pKa is reported as 5.5.

As usually defined, the pKa is the pH at which an ionisable group is half protonated. Higher therefore signals a group that holds its proton tightly.
